# scFv variants of Ab-14 (heavy chain) against a SARS-CoV-2 spike peptide

Binding partner: SARS-CoV-2 spike HR2 peptide, sequence PDVDLGDISGINAS.

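Phage display of a naive human antibody library on the peptide gave the parent. AAYL49 was designed without a model: most single CDR substitutions and a random sample of double and triple ones. Affinity was read by AlphaSeq, a pooled yeast mating assay with surface-displayed partners. Binding brings cells together so that they mate, and sequencing counts the barcode pairs among the diploids. Each replicate has its own calibration line, from reference interactions of the BCL2 family. Mating was done three times.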

Ab-14 is the parent antibody, in scFv form: VH, then the linker GGGGSGGGGSGGGGS, then VL. The light chain is unchanged in all variants.
VH: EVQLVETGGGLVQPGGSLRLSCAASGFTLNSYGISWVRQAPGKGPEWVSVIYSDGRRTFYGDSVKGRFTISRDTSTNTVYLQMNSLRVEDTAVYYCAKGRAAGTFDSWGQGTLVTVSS
VL: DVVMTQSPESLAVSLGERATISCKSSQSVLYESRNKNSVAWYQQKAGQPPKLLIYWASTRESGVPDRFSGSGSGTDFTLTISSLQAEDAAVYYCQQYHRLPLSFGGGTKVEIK

Changes read parent residue, position, new residue, counted from the first residue of the VH shown. Numbers give log10(Kd / nM), so 0 is 1 nM and 3 is 1 µM. Smaller is tighter. The mean shown is taken over the replicates in which the pair was detected. A pair that was not seen in that replicate is written "n.d."; this usually means weak binding, but a binder can also be missed. Empty control strains, which show no peptide, gave a signal in 15% of pairings with library AAYL49; the median was 4.06 and 95% of these signals were weaker than 2.83. No background was subtracted. Also given: how often the same scFv was detected with the empty control strains, with their mean in brackets.

changes	replicates, log10 nM	mean log10 Kd (nM)	empty controls
N30K/Y60V/V64A	n.d. / n.d. / n.d.	n.d.	0/9
S35K/Y60Q/G61K	2.47 / 1.83 / 2.10	2.13	3/9 (3.90)
S35Q/S53P/V64S	n.d. / n.d. / n.d.	n.d.	0/9
Y32G/V50A/D54H	n.d. / n.d. / n.d.	n.d.	1/9 (3.89)
F27T/N30Q/T104Q	1.61 / 1.69 / 1.69	1.67	1/9 (3.89)
Y32C/R100W/T104H	n.d. / n.d. / n.d.	n.d.	1/9 (3.97)
N30S/Y32C/T58A	3.56 / 2.39 / 3.17	3.04	2/9 (3.70)
V50T/A102L/F105C	n.d. / 3.58 / n.d.	3.58	0/9
N30W/D54N/Y60R	n.d. / n.d. / n.d.	n.d.	2/9 (4.35)
D62Q/A102C/D106W	3.44 / 3.51 / 2.67	3.21	0/9
K65A/R100D/T104D	n.d. / n.d. / n.d.	n.d.	0/9
S35K/G55S/F105G	n.d. / 3.53 / n.d.	3.53	5/9 (3.65)
S35N/D54E/T104S	n.d. / n.d. / n.d.	n.d.	0/9
G26V/I51D/Y60T	n.d. / n.d. / n.d.	n.d.	1/9 (2.01)
F27M/S31K/R57P	n.d. / n.d. / n.d.	n.d.	8/9 (4.05)
S53H/K65D	3.53 / 3.21 / 5.33	4.02	1/9 (4.18)
Y32I/G55S/G61S	n.d. / n.d. / n.d.	n.d.	0/9
Y32D/F59C/R100Q	n.d. / n.d. / n.d.	n.d.	1/9 (4.07)
G26Y/A101E/T104L	n.d. / n.d. / n.d.	n.d.	0/9
S63E/A102M	n.d. / n.d. / n.d.	n.d.	0/9
T28I/S31M/T104R	4.69 / n.d. / 5.41	5.05	3/9 (3.80)
V50K/S53D/T58W	n.d. / n.d. / n.d.	n.d.	2/9 (4.81)
G55T/T58G/K65L	n.d. / 4.29 / n.d.	4.29	0/9
N30A	1.33 / 1.44 / 1.98	1.58	0/9
F105N/S107T	1.22 / 1.22 / 1.21	1.22	1/9 (3.00)
F27V/V50R/G99H	n.d. / n.d. / 2.88	2.88	0/9
Y32D/F59L/G61M	n.d. / 3.27 / n.d.	3.27	3/9 (4.53)
N30M/Y32G/G99S	n.d. / n.d. / 4.56	4.56	3/9 (5.23)
N30W/S53N/T58A	n.d. / n.d. / n.d.	n.d.	1/9 (4.44)
N30M/G33Q/Y52S	n.d. / 3.14 / n.d.	3.14	5/9 (3.86)
G33L/I34D/S35T	n.d. / n.d. / n.d.	n.d.	2/9 (3.44)

For reference, 4 entries of the list once more:

| changes | replicates, log10 nM | mean log10 Kd (nM) | empty controls |
|---|---|---|---|
| N30W/S53N/T58A | n.d. / n.d. / n.d. | n.d. | 1/9 (4.44) |
| Y32C/R100W/T104H | n.d. / n.d. / n.d. | n.d. | 1/9 (3.97) |
| K65A/R100D/T104D | n.d. / n.d. / n.d. | n.d. | 0/9 |
| N30W/D54N/Y60R | n.d. / n.d. / n.d. | n.d. | 2/9 (4.35) |

Data: MIT Lincoln Laboratory AlphaSeq set, Engelhart et al. 2022, doi:10.1038/s41597-022-01779-4, as distributed in FLAb.